Literature values in patent publication US20110136245A1, “SYNERGISTIC INTERACTIONS OF PHENOLIC COMPOUNDS FOUND IN FOOD” (priority 2009, published 2011).

Conditions: published values (Jorgensen & Skibsted 1998; Foley et al. 1999); cited from earlier work

Which one-electron reduction potential does the source give for (+)-catechin here?
The one-electron reduction potential was 0.36 V.
